# ChEMBL document CHEMBL3813591, “Tasiamide F, a potent inhibitor of cathepsins D and E from a marine cyanobacterium” (Bioorg Med Chem, 2016)
# Protein sequences, listed by entry. Tags and fused reporters are not part of them. Residues count along the entry.
# UniProt P07339, 65-162 limits assumed: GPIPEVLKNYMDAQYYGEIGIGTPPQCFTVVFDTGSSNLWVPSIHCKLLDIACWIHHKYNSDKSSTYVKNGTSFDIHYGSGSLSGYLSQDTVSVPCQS
# UniProt P07339, 169-412 limits assumed: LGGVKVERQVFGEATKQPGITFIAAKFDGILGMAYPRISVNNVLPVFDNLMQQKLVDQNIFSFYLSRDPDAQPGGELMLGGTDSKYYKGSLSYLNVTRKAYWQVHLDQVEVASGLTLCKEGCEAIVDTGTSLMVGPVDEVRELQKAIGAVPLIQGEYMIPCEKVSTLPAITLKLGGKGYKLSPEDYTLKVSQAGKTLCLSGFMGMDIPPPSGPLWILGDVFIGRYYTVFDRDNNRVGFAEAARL
# Molecular target: Cathepsin D (Homo sapiens, UniProt P07339)
# Test: Inhibition of human liver cathepsin D using Mca-Gly-Lys-Pro-Ile-Leu-Phe-Phe-Arg-Leu-Lys-(Dnp)-D-Arg-NH2 as substrate preincubated for 15 mins followed by substrate addition measured every 5 mins for 120 mins by fluorescence analysis
structure (smiles),measurement,value
COC(=O)[C@@H]1CCCN1C(=O)[C@@H](Cc1ccccc1)N(C)C(=O)[C@H](C)NC(=O)[C@H](CC(C)C)NC(=O)C[C@H](O)[C@H](Cc1ccccc1)NC(=O)[C@H](CCC(N)=O)N(C)C(=O)[C@@H](NC(=O)[C@H](C)O)C(C)C,IC50,50 nM
